The text below walks through data of BindingDB's records for doi:10.1021/jm800986w (The Scripps Research Institute, 2008).

Chains of the proteins cited; added tags and fusions are not shown. Lines headed by an entry give the natural chain unless they say otherwise; changes in a name come on top.
UniProt Q5VT25: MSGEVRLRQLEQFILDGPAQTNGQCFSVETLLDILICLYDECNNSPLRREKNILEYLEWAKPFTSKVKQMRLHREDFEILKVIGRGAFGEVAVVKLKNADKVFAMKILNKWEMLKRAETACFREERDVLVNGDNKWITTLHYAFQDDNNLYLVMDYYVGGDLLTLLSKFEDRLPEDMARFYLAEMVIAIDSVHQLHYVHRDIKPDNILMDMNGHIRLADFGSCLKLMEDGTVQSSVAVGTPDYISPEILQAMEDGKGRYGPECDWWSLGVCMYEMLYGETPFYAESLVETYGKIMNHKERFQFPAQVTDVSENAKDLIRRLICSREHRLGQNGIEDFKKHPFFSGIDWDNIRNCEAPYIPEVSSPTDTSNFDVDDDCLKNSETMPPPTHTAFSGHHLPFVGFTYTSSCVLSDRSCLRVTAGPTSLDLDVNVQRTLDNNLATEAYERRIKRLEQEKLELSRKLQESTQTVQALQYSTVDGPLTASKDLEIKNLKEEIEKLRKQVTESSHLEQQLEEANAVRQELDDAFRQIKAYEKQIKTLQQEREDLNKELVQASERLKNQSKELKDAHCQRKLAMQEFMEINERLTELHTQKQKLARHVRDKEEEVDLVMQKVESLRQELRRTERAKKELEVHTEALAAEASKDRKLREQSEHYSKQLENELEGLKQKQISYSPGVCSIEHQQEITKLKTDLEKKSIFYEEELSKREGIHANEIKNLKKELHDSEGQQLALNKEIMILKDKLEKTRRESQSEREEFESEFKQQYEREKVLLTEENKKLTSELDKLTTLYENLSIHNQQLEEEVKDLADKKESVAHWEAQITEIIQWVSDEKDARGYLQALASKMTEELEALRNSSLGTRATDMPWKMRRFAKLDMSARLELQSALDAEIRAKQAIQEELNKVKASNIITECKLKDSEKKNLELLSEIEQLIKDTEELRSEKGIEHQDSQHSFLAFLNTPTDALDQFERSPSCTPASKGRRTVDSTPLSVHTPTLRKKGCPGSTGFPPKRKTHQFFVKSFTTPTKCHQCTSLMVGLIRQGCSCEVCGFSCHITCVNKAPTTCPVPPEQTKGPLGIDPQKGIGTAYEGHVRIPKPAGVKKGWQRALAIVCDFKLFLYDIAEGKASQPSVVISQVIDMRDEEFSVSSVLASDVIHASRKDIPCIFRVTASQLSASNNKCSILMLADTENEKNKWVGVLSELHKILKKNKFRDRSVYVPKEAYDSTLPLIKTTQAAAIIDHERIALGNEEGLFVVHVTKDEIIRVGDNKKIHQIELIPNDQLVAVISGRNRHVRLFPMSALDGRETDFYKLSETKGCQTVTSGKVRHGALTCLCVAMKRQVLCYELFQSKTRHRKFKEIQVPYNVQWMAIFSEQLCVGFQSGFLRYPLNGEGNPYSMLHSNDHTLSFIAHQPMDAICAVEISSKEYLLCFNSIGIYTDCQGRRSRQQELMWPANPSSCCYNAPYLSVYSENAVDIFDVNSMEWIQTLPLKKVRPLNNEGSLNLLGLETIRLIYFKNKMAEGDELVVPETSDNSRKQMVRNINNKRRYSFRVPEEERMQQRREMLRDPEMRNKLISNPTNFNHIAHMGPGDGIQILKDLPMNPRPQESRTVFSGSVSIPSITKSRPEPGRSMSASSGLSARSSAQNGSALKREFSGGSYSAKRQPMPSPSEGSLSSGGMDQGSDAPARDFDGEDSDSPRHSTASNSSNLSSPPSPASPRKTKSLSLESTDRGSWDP

This test addresses Serine/threonine-protein kinase MRCK alpha (Homo sapiens, UniProt Q5VT25). Kind of test: MRCK Inhibition Assay. As to conditions: pH 7.3; 22 °C.

As a reminder, the IC50 is the concentration that inhibits the measured activity by half. A higher IC50 goes with lower potency. Take `O=C(Nc1nc(-c2ccncc2)cs1)C1COc2ccccc2O1` (stereo unspecified): the IC50 is 4.85 µM.
